Laboratory results published in patent EP0377489A2, “Purified C5a receptor from human polymorphonuclear leukocytes” (MERCK & CO. INC., priority 1989, dated 1990).

Test system: solubilized C5a receptor
Assay: Inhibition of C5a binding to solubilized or purified receptor by nucleotides
Set-up: species or system human
Method: -All assays, except where noted, were performed at 4°C, with freshly thawed membranes or freshly prepared soluble receptor. To assay intact membranes, assay buffer (50 mM HEPES, pH 7.2, containing 1 mM CaCl₂, 5 mM MgCl₂, 0.1 mM PMSF, 0.1% bacitracin, and 0.5% bovine serum albumin), ¹²⁵I-C5a (typically 0.1 ng), and membrane (typically 0.5 µg) were added sequentially to a final volume of 200 µl. After incubation for 60-90 minutes 2 ml of assay buffer was added, the solution mixed, and the sample filtered through either a Whatman® GF/C filter treated with 0.33% polyethyleneimine or an untreated Millipore®GVWP filter. See (Bruns, R.F., Lawson-Wending, K., and Pugsley, T.A. (1983) Anal. Biochem. 132, 74-79). The filters were then counted in a Packard 460 γ-counter. Nonspecific backgrounds were determined by including 20 ng or more of unlabled C5a in the incubation mixture. To assay soluble receptor, assay buffer, solubilized membrane (typically 5 µl) and ¹²⁵I-C5a were mixed to a final volume of 200 µl and incubated for 15-30 minutes, at which time 500 µl of 0.1% bovine γ-globulin and 500 µl of 30% polyethylene glycol were added sequentially with vigorous mixing. After an additional 5 minutes, the sample was filtered and washed with 2 ml of a 9% PEG solution. […]

With Nc1ncnc2c1ncn2[C@@H]1O[C@H](COP(=O)(O)OP(=O)(O)OP(=O)(O)O)[C@@H](O)[C@H]1O [ATP] the “sensitivity of binding of C5a to the purified receptor to inhibition” value was “not”.
